This passage reports KD results from article PMC11680790, “Structural and functional determination of peptide versus small molecule ligand binding at the apelin receptor” (Nature Communications, 2024).

Residue numbers refer to the chain shown, from its start.

Assay [1] deals with T1, V/L38^1.42 variant apelin receptor (Homo sapiens, UniProt P35414, V38L).
T1 construct: expressed in transfected cells; host or cells: CHO-K1, transient, pcDNA3.1
T1 sequence (P35414 1-380 V38L): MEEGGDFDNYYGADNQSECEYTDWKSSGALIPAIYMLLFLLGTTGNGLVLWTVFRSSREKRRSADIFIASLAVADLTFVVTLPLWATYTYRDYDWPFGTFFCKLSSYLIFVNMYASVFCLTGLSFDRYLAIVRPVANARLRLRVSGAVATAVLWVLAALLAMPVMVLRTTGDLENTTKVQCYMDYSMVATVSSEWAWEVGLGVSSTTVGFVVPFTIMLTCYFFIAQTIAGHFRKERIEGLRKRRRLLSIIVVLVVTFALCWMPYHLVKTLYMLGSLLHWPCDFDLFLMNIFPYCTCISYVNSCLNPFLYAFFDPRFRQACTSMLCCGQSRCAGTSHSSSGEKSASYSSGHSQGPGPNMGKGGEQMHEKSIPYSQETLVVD
The experiment in a line: Saturation radioligand binding, CHO-K1 membranes, V/L38^1.42. Particulars: 90 min, room temperature, pH 7.4. On the procedure: (§1) The radiolabel has a specific activity of 2200 Ci/mmol. Plastic-ware used in radioligand binding experiments was coated with Sigmacote, a siliconising reagent that forms a covalent film to reduce sticking of the radiolabel.
(§2) Membrane protein preparations were made by harvesting CHO-K1 cells transiently transfected with wild-type or variant apelin receptor construct into tubes. Tubes were spun at 1000 xg for 10 min at 4 °C to pellet cells, before resuspending and triturating in ice-cold TRIS wash buffer (50 mM TRIS-HCl in deionised water, pH balanced to 7.4 at room temperature) to induce complete hypotonic lysis of cells. Cells were spun a second time at 21,000 × g for 20 min at 4 °C, to obtain a crude membrane fraction. […] Protein concentration of cell membrane preparations was determined using a DC Protein Assay (Bio-Rad), as per the manufacturer’s instructions.
(§3) For binding experiments, membrane preparations were diluted in binding buffer (50 mM TRIS-HCl and 5 mM MgCl2, balanced to pH 7.4 at room temperature) to give a final protein concentration of 1 mg/mL. […] Radioactivity in pellets was counted using a Cobra II model 5003 gamma counter (Packard).
(§4) Saturation binding data were analysed using the EBDA and LIGAND components of the KELL (Kinetic, EBDA, Ligand, Lowry) software package (Biosoft)[58] to generate receptor affinity (KD) and receptor density (Bmax) values. […]

The target in assay [2] is T2, R/H168^4.64 variant apelin receptor (Homo sapiens, UniProt P35414, R168H).
T2 construct: expressed in transfected cells; host or cells: CHO-K1, transient, pcDNA3.1
T2 sequence (P35414 1-380 R168H): T1 sequence (P35414 1-380 V38L) with L38V, R168H
The experiment in a line: Saturation radioligand binding, CHO-K1 membranes, R/H168^4.64. Particulars: 90 min, room temperature, pH 7.4. The method, then:
as §1, §2, §3, §4

`CCCC[C@H](NC(=O)[C@@H]1CCCN1C(=O)CNC(=O)[C@H](CCCCN)NC(=O)[C@H](Cc1c[nH]cn1)NC(=O)[C@H](CO)NC(=O)[C@H](CC(C)C)NC(=O)[C@H](CCCNC(=N)N)NC(=O)[C@@H]1CCCN1C(=O)[C@H](CCCNC(=N)N)NC(=O)[C@@H]1CCC(=O)N1)C(=O)N1CCC[C@H]1C(=O)N[C@@H](Cc1ccc(O)c(I)c1)C(=O)O` [[^125I]-apelin-13]: the KD entry in assay [1] and in assay [2] was “NBD” each time.
